# Experimental data as given in PubChem BioAssay AID2648 (Johns Hopkins Ion Channel Center, 2010).
# Amino acid sequences for entries named in this document (tags omitted).
# UniProt P51787, whole entry: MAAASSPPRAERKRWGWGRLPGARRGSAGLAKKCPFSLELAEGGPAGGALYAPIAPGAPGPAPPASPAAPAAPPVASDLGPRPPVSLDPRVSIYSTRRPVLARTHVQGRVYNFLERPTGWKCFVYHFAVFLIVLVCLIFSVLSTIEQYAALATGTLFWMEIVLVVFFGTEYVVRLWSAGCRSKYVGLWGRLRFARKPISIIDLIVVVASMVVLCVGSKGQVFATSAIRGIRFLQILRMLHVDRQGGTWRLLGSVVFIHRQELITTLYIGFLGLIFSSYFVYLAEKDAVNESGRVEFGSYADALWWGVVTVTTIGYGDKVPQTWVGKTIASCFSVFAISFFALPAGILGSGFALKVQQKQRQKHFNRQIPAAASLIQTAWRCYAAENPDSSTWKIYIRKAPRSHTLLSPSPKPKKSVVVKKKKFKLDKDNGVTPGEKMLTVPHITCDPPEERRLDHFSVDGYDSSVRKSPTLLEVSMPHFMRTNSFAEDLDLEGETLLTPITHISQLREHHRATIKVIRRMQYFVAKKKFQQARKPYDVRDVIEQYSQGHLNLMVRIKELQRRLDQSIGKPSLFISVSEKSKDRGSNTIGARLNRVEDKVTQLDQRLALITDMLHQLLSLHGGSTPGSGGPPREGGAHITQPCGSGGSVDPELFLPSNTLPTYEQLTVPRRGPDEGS
# The entries are a selection whose mix differs from that of the whole data set. Calls of active or inactive are those of the source.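 Rule for the calls: active = fluorescence ratio B-score, a plate-corrected score, at least three library SD, with initial intensity B-score within 5 SD; inactive = the rest.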
# Target: Potassium voltage-gated channel subfamily KQT member 1 (Homo sapiens) (UniProt P51787)
# Assay: potentiators or activators of KCNQ1 channel, primary screen, cell-based, thallium flux, high-throughput (AID 2648)
# Settings: CHO-K1 KCNQ1, thallium flux FluxOR fluorescence; at 10 µM
row,SMILES,outcome
1,CS(=O)(=O)c1cc([N+](=O)[O-])c2no[n+]([O-])c2c1,inactive
2,O=P(Nc1nccs1)(c1ccccc1)c1nc2ccccc2s1 (stereo unspecified),inactive
3,O=P(Nc1nccs1)(Oc1ccccc1)Oc1ccccc1,inactive
4,CCOP1(=S)c2c(C)nn(CCC#N)c2N=C(c2ccccc2F)N1C (stereo unspecified),inactive
5,O=C(O)c1cccc(Nc2c([N+](=O)[O-])cc([N+](=O)[O-])cc2[N+](=O)[O-])c1,inactive
6,Nc1ccccc1[As](=O)(O)c1ccccc1,inactive
7,O=C(O)COc1ccc([As](=O)(O)O)cc1[N+](=O)[O-],inactive
8,NC(=O)Nc1ccc([As](=O)(O)O)cc1,inactive
9,CN(C(=O)Cc1ccc(Cl)c(Cl)c1)[C@H]1CC[C@@]2(CCCO2)C[C@@H]1N1CCCC1,inactive
10,CC1=NCCc2c1[nH]c1ccccc21.O=[N+]([O-])c1cc([N+](=O)[O-])c(O)c([N+](=O)[O-])c1,inactive
11,CN(C)C(=O)c1cc([N+](=O)[O-])cc2c1-c1c(cc([N+](=O)[O-])cc1[N+](=O)[O-])C2=O,inactive
12,O=[N+]([O-])c1ccc2c(c1)nnn2O,inactive
13,CCOP1(=S)c2c(C)nn(CCC#N)c2N=C(c2ccc(F)cc2)N1C (stereo unspecified),inactive
14,CN(C(=O)Cc1ccccc1)[C@@H]1CC[C@]2(CCCO2)C[C@H]1N1CCCC1,inactive
15,N#CCCN(C(=O)COC(=O)C(O)(c1ccccc1)c1ccccc1)c1ccc(F)cc1,inactive
16,CS(=O)(=O)c1ccc(Cl)c(NC(=O)COC(=O)C(O)(c2ccccc2)c2ccccc2)c1,inactive
17,COc1ccccc1OP(C)(=O)Nc1cccc(Br)c1 (stereo unspecified),inactive
18,COc1cc(C(=O)NCC2(N3CCOCC3)CCCCC2)cc(Cl)c1OC(C)C,inactive
19,O=[As](O)(O)c1cccnc1,inactive
20,O=C(OC1CN2CCC1CC2)c1ccc(Cl)cc1 (stereo unspecified),inactive
21,CCOC(=O)c1ccc(NP(C)(=O)Oc2cc(C)cc(C)c2)cc1 (stereo unspecified),inactive
22,Cc1cc(C)cc(OP(C)(=O)Nc2ccc(C)cc2C)c1 (stereo unspecified),inactive
23,O=[As](O)(c1cccc(O)c1)c1cccc(O)c1,inactive
24,Cc1cccc(OCC(=O)OC2CN3CCC2CC3)c1 (stereo unspecified),inactive

row,SMILES,outcome
1,CCCOP(=S)(Nc1nc(N)cc(=O)[nH]1)OCCC,inactive
2,Cc1ccc(C)c(NP(C)(=O)Oc2ccccc2)c1 (stereo unspecified),inactive
3,Nc1cccc2c([As](=O)(O)O)cccc12,inactive
4,Cc1ccc(NCCc2c([N+](=O)[O-])cc([N+](=O)[O-])cc2[N+](=O)[O-])cc1,inactive
5,CP(=O)(Nc1cccc(Br)c1)Oc1ccccc1 (stereo unspecified),inactive
6,Cc1cc(C)cc(OP(C)(=O)Nc2ccccn2)c1 (stereo unspecified),inactive
7,CCOP(=O)(Nc1cccc2ccccc12)OCC,inactive
8,CN(CCCl)Cc1cc(Cl)c(NC2=NCCN2)c(Cl)c1,inactive
9,CCOP(=O)(Nc1ccc(C)cn1)OCC,inactive
10,CCOP(=O)(NC(=NC(C)c1ccccc1)NC(C)c1ccccc1)OCC (stereo unspecified),inactive
11,O=[N+]([O-])c1cc([N+](=O)[O-])c(-n2nnc3ccccc32)c([N+](=O)[O-])c1,inactive
12,O=P1(Nc2ccccn2)COc2ccccc2OC1,inactive
13,CCC1=CC2Cc3nc4ccc(Cl)cc4c(N)c3C(C1)C2 (stereo unspecified),inactive
14,CC(C)(C)C(=O)NC(Sc1ncccn1)C(Cl)(Cl)Cl (stereo unspecified),inactive
15,Clc1n[nH]nc1-c1nn[nH][15n]1,inactive
16,COc1ccccc1CNC(=O)COC(=O)C(O)(c1ccccc1)c1ccccc1,inactive
17,O=[N+]([O-])c1cc([N+](=O)[O-])c(-c2cnn(-c3ccccc3)c2)c([N+](=O)[O-])c1,inactive
18,CC1(CBr)Cn2c(nc3ccccc3c2=O)S1 (stereo unspecified),inactive
19,O=[As](O)(c1ccccc1Br)c1ccccc1Br,inactive
20,CC(C)/C=N\N=C(\N)N[N+](=O)[O-],inactive
21,CN(C(=O)Cc1ccc(Cl)c(Cl)c1)[C@@H]1CCCC[C@H]1N1CCCC1,inactive
22,COc1cc(C2NCCC3(OCCO3)C2(C)C)cc(OC)c1OC.O=[N+]([O-])c1cc([N+](=O)[O-])c(O)c([N+](=O)[O-])c1 (stereo unspecified),inactive
23,CC1CCC(C(C)C)C(OP(=O)(Nc2ccccn2)c2ccccc2)C1 (stereo unspecified),inactive
24,Cc1ccc(C(=O)OC2CN3CCC2CC3)cc1 (stereo unspecified),inactive

row,SMILES,outcome
1,Cc1nn(-c2ccccc2)c2c1P(=O)(N1CCOCC1)N(C)C(c1ccccc1)=N2 (stereo unspecified),inactive
2,O=C(/C=C/c1ccccc1)OC1CN2CCC1CC2 (stereo unspecified),inactive
3,CCOC(=O)C(CC)C1=NC(C)(C)Cc2ccccc21.O=[N+]([O-])c1cc([N+](=O)[O-])c(O)c([N+](=O)[O-])c1 (stereo unspecified),inactive
4,O=[N+]([O-])c1cc([N+](=O)[O-])c(Nc2nnnn2CCO)c([N+](=O)[O-])c1,inactive
5,CN(C)C1(CNC(=O)c2ccc(S(C)(=O)=O)cc2)CCCCC1,inactive
6,O=P1(Nc2ncccn2)COc2ccccc2OC1,inactive
7,COc1ccccc1OP(C)(=O)Nc1c(C)cccc1C (stereo unspecified),inactive
8,CN1CCCCC1COC(=O)C1(O)c2ccccc2CCc2ccccc21 (stereo unspecified),inactive
9,O=P1(Nc2ccc(Br)cn2)COc2ccccc2OC1,inactive
10,O=[As](O)(c1cccs1)c1cccs1,inactive
11,Cc1ccc(OCC(=O)OC2CN3CCC2CC3)cc1 (stereo unspecified),inactive
12,CP(=O)(Nc1ccc(SC(F)(F)F)cc1)Oc1ccccc1 (stereo unspecified),inactive
13,Nc1cccc([As](=O)(O)c2ccccc2)c1,inactive
14,CCCOc1ccc(NP(C)(=O)Oc2ccc(Cl)cc2)cc1 (stereo unspecified),inactive
15,CCOC(=O)Nc1ccc([As](=O)(O)O)c(O)c1,inactive
16,Cc1cc(SC(NC(=O)c2ccccc2)C(Cl)(Cl)Cl)nc(C(C)C)n1 (stereo unspecified),inactive
17,CCCCOc1ccc(C(=O)NCC2(N3CCCCC3)CCCCC2)cc1OC,inactive
18,CCOC(=O)Nc1cccc([As](=O)(O)O)c1,inactive
19,CP(=S)(Nn1cnnc1)Oc1ccccc1 (stereo unspecified),inactive
20,O=[N+]([O-])c1ccc(Nc2ccc(Oc3ccc([N+](=O)[O-])cc3[N+](=O)[O-])cc2)c([N+](=O)[O-])c1,inactive
21,CP(=O)(Nc1ccccc1Br)Oc1ccccc1 (stereo unspecified),inactive
22,COc1ccccc1OP(C)(=O)Nc1ccccc1 (stereo unspecified),inactive
23,O=P(Nc1ccccn1)(c1cccc2ccccc12)c1cccc2ccccc12,inactive
